Experimental data as given in article PMC6506529, “Structural Insights into Catalytic Versatility of the Flavin-dependent Hydroxylase (HpaB) from Escherichia coli” (Scientific Reports, 2019).

System: O=C1C[C@@H](c2ccc(O)cc2)Oc2cc(O)cc(O)c21
Assay: purified protein
Conditions: apparent, 10 μM FAD, 1 mM NADH, 500 nM HpaC, 20 mM KPi pH 7.0, 30 °C

## EcHpaB (Escherichia coli; A211D/E216S/F208S/M214S/N217D/Q212L/V213G)
  Km: 191.6 ± 33.6 µM
  kcat: 0.15 s⁻¹
  kcat/Km: 800 M⁻¹ s⁻¹

## EcHpaB (Escherichia coli; A211D/F208A/G207M/G209M/S210V)
  Km: 1061.7 ± 21.1 µM
  kcat: 0.108 s⁻¹
  kcat/Km: 100 M⁻¹ s⁻¹
